These results are taken from ChEMBL document CHEMBL1121722, “Nonquaternary cholinesterase reactivators. Dialkylaminoalkyl thioesters of alpha-ketothiohydroximic acids as reactivators of diisopropyl phosphorofluoridate inhibited acetylcholinesterase” (1981).

Amino acid sequences for entries named in this document (tags omitted). A change or cut given only in a name is not applied to a line headed by its entry.
UniProt P22303: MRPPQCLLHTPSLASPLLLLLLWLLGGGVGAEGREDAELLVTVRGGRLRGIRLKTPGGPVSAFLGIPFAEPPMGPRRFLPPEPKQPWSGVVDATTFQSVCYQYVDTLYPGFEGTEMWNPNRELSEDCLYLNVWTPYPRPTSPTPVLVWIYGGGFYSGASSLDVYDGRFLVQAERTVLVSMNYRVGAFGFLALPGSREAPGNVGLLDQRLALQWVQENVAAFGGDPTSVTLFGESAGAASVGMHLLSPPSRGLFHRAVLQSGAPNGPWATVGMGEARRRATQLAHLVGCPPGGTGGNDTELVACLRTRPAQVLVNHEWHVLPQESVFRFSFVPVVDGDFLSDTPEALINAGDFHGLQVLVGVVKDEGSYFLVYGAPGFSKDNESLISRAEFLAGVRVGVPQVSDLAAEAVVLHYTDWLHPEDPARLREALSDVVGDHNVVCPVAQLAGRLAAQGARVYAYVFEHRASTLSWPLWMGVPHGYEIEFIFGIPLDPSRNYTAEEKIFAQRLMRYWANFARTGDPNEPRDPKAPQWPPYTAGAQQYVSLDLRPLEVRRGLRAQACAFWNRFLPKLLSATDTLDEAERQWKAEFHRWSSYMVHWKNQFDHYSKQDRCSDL

The target in assay [1] is Acetylcholinesterase (Homo sapiens) (UniProt P22303). Description: Pseudo first order observed rate constants for reactivation of acetylcholinesterase at 2M*10e4 HOX and 1M*10e4OX; Kobs (min-1 X 10e3).
The target is the same in assay [2]. Description: keff for reactivation of acetylcholinesterase at concentration of 2M*10e4 [HOX] and 17.6Me-1*10e-3 [OX]e-1 was determined; Expressed as keff, 1/M 1/min.
Assay [3] has the same target. Description: Pseudo first order observed rate constants for reactivation of acetylcholinesterase at 6M*10e4 HOX and 1.71 M*10e4OX; Kobs (min-1 X 10e3).
For assay [4] the target is unchanged. As to the kind of experiment: Maximum attainable percent reactivation obtained for a range of concentrations of 10M*10e4 HOX and 2.85M*10e4OX.
Assay [5] has the same target. As to the kind of experiment: Kinetic constant was determined for reactivation of acetylcholinesterase at concentration of 10M*10e4 [HOX] and 8.51Me-1*10e-3 [OX]e-1; (kobsd-ka)e-1, min.
The target is the same in assay [6]. As to the kind of experiment: Maximum attainable percent reactivation obtained for a range of concentrations of 2M*10e4 HOX and 0.569M*10e4OX.
Assay [7] shares this target. As to the kind of experiment: Maximum attainable percent reactivation obtained for a range of concentrations of 6M*10e4 HOX and 1.71 M*10e4OX.
For assay [8] the target is unchanged. Description: kb for reactivation of acetylcholinesterase at concentration of 2M*10e4 [HOX] and 17.6Me-1*10e-3 [OX]e-1 was determined; Expressed as kb, 1/M 1/min.
For assay [9] the target is unchanged. As to the kind of experiment: Ratio of [EOP'']infinity to that of [EOH]infinity for reactivation of acetylcholinesterase at concentration of 2M*10e4 [HOX] and 17.6Me-1*10e-3 [OX]e-1; Expressed as [EOP'']infinity/[EOH]infinity.
Assay [10] shares this target. Description: Percent reactivation of acetylcholinesterase after 2 hr incubation.
The target is the same in assay [11]. As to the kind of experiment: Ratio of [EOP'']infinity to that of [EOH]infinity for reactivation of acetylcholinesterase at concentration of 6M*10e4 [HOX] and 5.86Me-1*10e-3 [OX]e-1; Expressed as [EOP'']infinity/[EOH]infinity.
Assay [12] has the same target. Description: keff (rel) for reactivation of acetylcholinesterase at concentration of 2M*10e4 [HOX] and 17.6Me-1*10e-3 [OX]e-1 was determined; Expressed as keff (rel).
The target is the same in assay [13]. As to the kind of experiment: Percent reactivation of acetylcholinesterase after 24 hr incubation.
The target is the same in assay [14]. Description: 1/kmax for reactivation of acetylcholinesterase at concentration of 2M*10e4 [HOX] and 17.6Me-1*10e-3 [OX]e-1 was determined; Expressed as 1/kmax, min.
Assay [15] shares this target. As to the kind of experiment: Kinetic constant was determined for reactivation of acetylcholinesterase at concentration of 6M*10e4 [HOX] and 5.86Me-1*10e-3 [OX]e-1; (kobsd-ka)e-1, min.
Assay [16] has the same target. As to the kind of experiment: Pseudo first order observed rate constants for reactivation of acetylcholinesterase at 10M*10e4 HOX and 2.85M*10e4OX; Kobs (min-1 X 10e3).
Assay [17] shares this target. As to the kind of experiment: Kr for reactivation of acetylcholinesterase at concentration of 2M*10e4 [HOX] and 17.6Me-1*10e-3 [OX]e-1 was determined; Expressed as kr, M*10e4.
The target is the same in assay [18]. As to the kind of experiment: Ratio of kaKr to that of kr for reactivation of acetylcholinesterase at concentration of 2M*10e4 [HOX] and 17.6Me-1*10e-3 [OX]e-1 was determined; Expressed as kaKr/kr; M*10e4.
Assay [19] has the same target. Description: ka for reactivation of acetylcholinesterase at concentration of 2M*10e4 [HOX] and 17.6Me-1*10e-3 [OX]e-1 was determined; Expressed as ka, 1/min 1*10e3.
The target is the same in assay [20]. As to the kind of experiment: Ratio of ka to that of kr for reactivation of acetylcholinesterase at concentration of 2M*10e4 [HOX] and 17.6Me-1*10e-3 [OX]e-1 was determined.
Assay [21] shares this target. Description: Ratio of [EOP'']infinity to that of [EOH]infinity for reactivation of acetylcholinesterase at concentration of 10M*10e4 [HOX] and 8.51Me-1*10e-3 [OX]e-1; Expressed as [EOP'']infinity/[EOH]infinity.
The target is the same in assay [22]. Description: Percent reactivation of acetylcholinesterase after 4 hr incubation.
The target is the same in assay [23]. As to the kind of experiment: Ratio of Kr/kmax for reactivation of acetylcholinesterase at concentration of 2M*10e4 [HOX] and 17.6Me-1*10e-3 [OX]e-1 was determined; Expressed as Kr/kmax, M-min*10e2.
Assay [24] has the same target. As to the kind of experiment: Kinetic constant was determined for reactivation of acetylcholinesterase at concentration of 2M*10e4 [HOX] and 17.6Me-1*10e-3 [OX]e-1; (kobsd-ka)e-1, min.
Assay [25] has the same target. As to the kind of experiment: kr for reactivation of acetylcholinesterase at concentration of 2M*10e4 [HOX] and 17.6Me-1*10e-3 [OX]e-1 was determined; Expressed as kr, M*10e3.
For assay [26] the target is unchanged. Description: Percent reactivation of Acetylcholinesterase after 24 hr incubation.
The target is the same in assay [27]. As to the kind of experiment: Percent reactivation of Acetylcholinesterase after 4 hr incubation.
For assay [28] the target is unchanged. As to the kind of experiment: Percent reactivation of Acetylcholinesterase after 2 hr incubation.

Structures are written as SMILES.

For the molecule `COc1ccc(C(=O)/C(=N/O)SCCN(C)C)cc1`, the figures for the k obs in assay [1], in assay [3] and in assay [16] were 125 s⁻¹, 136 s⁻¹ and 172 s⁻¹, respectively. The molecule further showed a k eff in [2] of 1.8 M⁻¹ s⁻¹. Moreover, the Reactivation in [4] was found to be 4.15%; in assay [6] it was 3.15%; in assay [7], 3.83%; in [10], 56%; in assay [13], 71%; in assay [22], 65%. In addition, the 1/kobsd-ka in [5] is 115 min; in assay [15], 151 min; in [24], 170 min. Further, the kb in assay [8] turned out to be 6.33 M⁻¹ s⁻¹. The [EOP']infinity/[EOH]infinity in assay [9] worked out at 3.29; in assay [11], 1.17; in [21], 0.576. Further, the k eff (rel) in assay [12] came out at 9.8. This molecule also displayed a 1/kmax in assay [14] of 117 min. In assay [17], the Kr was 2700 M. In addition, the kaKr/kr in assay [18] was 19000 M. The molecule further came in with a ka in assay [19] of 190 min⁻¹. The ka/kr in assay [20] was -0.018. In addition, the Kr/kmax in assay [23] is 32 M-min. In addition, the kr in assay [25] was found to be 10000 min⁻¹.
Consider `CCN(CC)CCS/C(=N\O)C(=O)c1ccc([N+](=O)[O-])cc1`, for which the Reactivation worked out at 25% in [26], 20% in [27] and 18% in assay [28].
